These are literature values, as cited in patent US20240142437A1, “METHODS TO PREVENT TERATOGENICITY OF IMID LIKE MOLECULES AND IMID BASED DEGRADERS/PROTACS” (DANA-FARBER CANCER INSTITUTE, INC., priority 2017, published 2024).

For the series the following is noted: typical dose of 200-400 mg, 25 mg, or 2 mg for thalidomide, lenalidomide, or pomalidomide; read-out: maximum plasma concentration (Cmax); cited from earlier work.

For `Nc1cccc2c1CN(C1CCC(=O)NC1=O)C2=O` (stereo not shown) [lenalidomide], the Cmax was roughly 2500 nM.
